The values that follow are results of earlier work, collected in US20060009393A1, “Immunogenic epitopes for fibroblast growth factors 5 (FGF-5)” (The Government of the U.S.A as represented by the Secretary …, priority 1999, published 2006).

The data set relates to metastatic disease (renal cell carcinoma). Conditions: cited from earlier work.

In the case of “IL-2: high-dose bolus interleukin 2 immunotherapy”, the “chance of being alive and free of disease in complete responders” value (median follow-up of over nine years) was 80%. Also, for the setting “metastatic RCC”, the “fraction of regressions that are complete responses” value is “about one third” and the patients with regression is listed as 15-20%.
